Assay results taken from patent EP1674110A1, “Inhibition of bradykinin release” (priority 1999, dated 2000).

How the values were obtained:
[R23S,F25E]HBP (human) = [R23S,F25E]HBP (human) (UniProt P20160); assay: scintillation proximity assay, unlabeled BPTI competing with 125I-BPTI for [R23S,F25E]HBP
[1] = target: native human heparin-binding protein (human) (UniProt P20160); assay: scintillation proximity assay, unlabeled BPTI competing with 125I-BPTI for HBP

IC50 ([R23S,F25E]HBP (human)): 7 nM
IC50 [1]: 7 nM
Substance: bovine pancreatic trypsin inhibitor (from UniProt P00974 36-93)
